How the values were obtained:
Assay in all cases: Glycosidase inhibition, spectrophotometric p-nitrophenyl glycoside assay
[1] = molecular target: α-Glucosidase from Saccharomyces cerevisiae (Saccharomyces cerevisiae, UniProt P53341)
[2] = molecular target: α-Galactosidase from green coffee beans (Coffea arabica, UniProt Q42656)
[3] = molecular target: T1, α-Mannosidase from jack bean (Canavalia ensiformis, UniProt C0HJB3)
T1 sequence (C0HJB3 1-981): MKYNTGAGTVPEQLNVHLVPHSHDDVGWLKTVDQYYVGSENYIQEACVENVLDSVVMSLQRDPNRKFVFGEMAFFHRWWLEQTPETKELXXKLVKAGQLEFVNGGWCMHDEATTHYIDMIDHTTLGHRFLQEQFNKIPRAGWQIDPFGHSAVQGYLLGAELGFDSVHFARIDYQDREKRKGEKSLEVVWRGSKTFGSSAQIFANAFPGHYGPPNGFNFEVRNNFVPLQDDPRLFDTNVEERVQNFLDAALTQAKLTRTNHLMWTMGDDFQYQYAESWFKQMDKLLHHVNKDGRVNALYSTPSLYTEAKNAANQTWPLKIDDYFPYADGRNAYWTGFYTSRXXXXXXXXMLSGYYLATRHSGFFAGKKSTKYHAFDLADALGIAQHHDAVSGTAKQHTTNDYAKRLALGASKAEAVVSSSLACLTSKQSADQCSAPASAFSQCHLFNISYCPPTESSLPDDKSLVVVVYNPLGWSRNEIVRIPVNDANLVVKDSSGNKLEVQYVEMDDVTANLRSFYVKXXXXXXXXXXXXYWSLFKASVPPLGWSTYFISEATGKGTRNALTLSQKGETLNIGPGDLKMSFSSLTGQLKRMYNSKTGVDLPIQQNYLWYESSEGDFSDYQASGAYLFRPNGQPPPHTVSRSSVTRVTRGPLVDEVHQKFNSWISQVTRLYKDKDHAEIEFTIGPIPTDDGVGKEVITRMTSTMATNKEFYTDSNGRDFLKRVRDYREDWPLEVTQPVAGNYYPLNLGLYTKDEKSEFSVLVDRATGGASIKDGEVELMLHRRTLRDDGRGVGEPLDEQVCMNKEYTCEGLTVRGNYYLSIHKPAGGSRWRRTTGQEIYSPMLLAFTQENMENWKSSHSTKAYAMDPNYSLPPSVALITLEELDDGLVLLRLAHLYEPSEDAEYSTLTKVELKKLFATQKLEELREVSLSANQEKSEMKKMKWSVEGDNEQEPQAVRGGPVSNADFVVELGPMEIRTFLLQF

Chains of the proteins cited; added tags and fusions are not shown. Lines headed by an entry give the natural chain unless they say otherwise; changes in a name come on top. Residues count along the entry.
UniProt P53341: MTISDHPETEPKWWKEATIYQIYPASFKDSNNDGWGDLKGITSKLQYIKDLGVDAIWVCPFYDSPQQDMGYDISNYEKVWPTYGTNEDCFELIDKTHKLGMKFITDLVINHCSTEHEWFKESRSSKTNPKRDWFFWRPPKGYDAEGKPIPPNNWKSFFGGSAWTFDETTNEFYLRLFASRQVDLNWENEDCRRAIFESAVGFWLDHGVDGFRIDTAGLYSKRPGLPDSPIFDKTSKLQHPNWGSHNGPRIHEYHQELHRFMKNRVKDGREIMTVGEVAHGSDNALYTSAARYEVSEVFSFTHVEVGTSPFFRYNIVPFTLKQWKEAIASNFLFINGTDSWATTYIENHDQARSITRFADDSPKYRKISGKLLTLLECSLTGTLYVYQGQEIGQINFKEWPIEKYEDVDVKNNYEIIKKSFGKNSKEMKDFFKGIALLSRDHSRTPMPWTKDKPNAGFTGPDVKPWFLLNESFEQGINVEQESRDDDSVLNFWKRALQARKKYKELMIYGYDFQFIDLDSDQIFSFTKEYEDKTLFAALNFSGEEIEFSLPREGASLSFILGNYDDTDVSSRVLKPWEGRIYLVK
UniProt Q42656, 16-378: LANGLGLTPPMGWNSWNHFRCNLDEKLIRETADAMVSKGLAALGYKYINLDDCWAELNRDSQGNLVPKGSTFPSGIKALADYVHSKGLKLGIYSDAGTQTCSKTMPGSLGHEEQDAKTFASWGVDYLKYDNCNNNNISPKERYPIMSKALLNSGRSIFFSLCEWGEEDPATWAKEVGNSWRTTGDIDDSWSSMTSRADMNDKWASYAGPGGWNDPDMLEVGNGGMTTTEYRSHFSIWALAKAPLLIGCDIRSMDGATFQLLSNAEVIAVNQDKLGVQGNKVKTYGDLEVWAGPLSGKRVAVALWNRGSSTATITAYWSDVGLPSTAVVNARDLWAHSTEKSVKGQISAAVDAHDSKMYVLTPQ

IC50 [1] [mM]	IC50 [2] [mM]	IC50 [3] [mM]	inhibition at 1000 µM ([1]; pH 7.2, read-out: Percentage inhibition (%) at 1 mM concentration of the inhibitor) [%]	Compound
1.5				O=C1CC=C(CO)[C@@H](O)[C@H](O)[C@@H]1O [Compound 4, (5R,6S,7S)-5,6,7-Trihydroxy-4-(hydroxymethyl)cyclohept-3-enone]
11.5				OCC1=CC[C@H](O)[C@@H](O)[C@@H](O)[C@@H]1O [Compound 5, (1S,2R,3S,4R)-5-(Hydroxymethyl)cyclohept-5-ene-1,2,3,4-tetraol]
2.9	1.3			OCC1=CC[C@@H](O)[C@@H](O)[C@@H](O)[C@@H]1O [Compound 6, (1R,2R,3S,4R)-5-(Hydroxymethyl)cyclohept-5-ene-1,2,3,4-tetraol]
9.5				C[C@H]1CC[C@@H](O)[C@@H](O)[C@@H](O)[C@@H]1O [Compound 15, (1R,2R,3S,4R,5S)-5-Methylcycloheptane-1,2,3,4-tetraol]
3.7		4.3	24.3	C[C@@H]1CC[C@@H](O)[C@@H](O)[C@@H](O)[C@@H]1O [Compound 16, (1R,2R,3S,4R,5R)-5-Methylcycloheptane-1,2,3,4-tetraol]

From PMC8698521 (RSC Advances, 2021)
